The values that follow come from DBAASP.

For test [1], the system named is Escherichia coli K-12. The test is described as follows: ≥ marks a high value that may be exact or a test limit, other limits are often not marked, values filed in µg/mL are converted to µM.
Test [2] relates to Staphylococcus aureus ATCC 12600. Described as above.

Converted amounts (≈) assume the structure as drawn. Bounds are passed on as bounds.

`CC[C@H](C)[C@H](NC(=O)[C@H](CCSC)NC(=O)[C@H](CCCN=C(N)N)NC(=O)CNC(=O)[C@H](C)NC(=O)[C@H](Cc1cnc[nH]1)NC(=O)[C@H](Cc1ccccc1)NC(=O)[C@H](CC(C)C)NC(=O)CNC(=O)[C@H](CCCCN)NC(=O)[C@@H](NC(=O)[C@@H](NC(=O)[C@H](Cc1cnc[nH]1)NC(=O)[C@H](Cc1ccccc1)NC(=O)[C@H](Cc1ccccc1)NC(=O)[C@@H](N)Cc1ccccc1)[C@@H](C)CC)[C@@H](C)CC)C(=O)N[C@@H](Cc1cnc[nH]1)C(=O)NCC(=O)N[C@@H](CC(C)C)C(=O)N[C@H](C(=O)O)C(C)C` [FFFHIIKGLFHAGRMIHGLV] gave an MIC in test [1] of 8 µM (≈ 18.7 µg/mL).

Consider `CC[C@H](C)[C@H](NC(=O)[C@H](CC(C)C)NC(=O)[C@H](C)NC(=O)[C@@H]1CCCN1C(=O)[C@H](CC(C)C)NC(=O)CNC(=O)[C@@H](NC(=O)[C@@H](NC(=O)[C@H](CC(C)C)NC(=O)[C@@H](NC(=O)[C@H](CCCCN)NC(=O)[C@H](CCCCN)NC(=O)[C@H](C)NC(=O)[C@H](C)NC(=O)[C@H](CO)NC(=O)[C@@H](NC(=O)[C@H](CC(C)C)NC(=O)[C@H](CCCCN)NC(=O)[C@H](CCCCN)NC(=O)[C@@H](NC(=O)[C@H](Cc1ccccc1)NC(=O)[C@H](CO)NC(=O)[C@H](CCCCN)NC(=O)[C@H](Cc1c[nH]c2ccccc12)NC(=O)[C@@H](N)CCCCN)[C@@H](C)CC)[C@@H](C)O)C(C)C)[C@@H](C)O)[C@@H](C)O)C(=O)N[C@@H](CO)C(=O)O` [KWKSFIKKLTSAAKKVLTTGLPALIS], for which the MIC turned out to be 2 µM (≈ 5.66 µg/mL) in test [1] and 16 µM (≈ 45.3 µg/mL) in test [2].

In test [1], `CC(C)C[C@H](NC(=O)[C@H](C)NC(=O)[C@H](CCC(=O)O)NC(=O)[C@H](CC(N)=O)NC(=O)[C@H](CC(C)C)NC(=O)[C@@H](N)C(C)C)C(=O)N[C@@H](CC(C)C)C(=O)N[C@@H](CCCN=C(N)N)C(=O)O` [VLNEALLR] showed an MIC not below 128 µM.

In test [1], `CC(C)C[C@H](NC(=O)[C@H](CC(C)C)NC(=O)[C@H](CC(N)=O)NC(=O)[C@H](CCC(=O)O)NC(=O)[C@H](CC(N)=O)NC(=O)[C@H](CC(C)C)NC(=O)[C@@H](N)C(C)C)C(=O)N[C@@H](C)C(=O)O` [VLNENLLA] displayed an MIC not below 128 µM.

One may read the MIC as the lowest concentration that inhibits growth of the organism. A low value points to inhibition by little substance.
